Our source for the cells killed values is patent US20180171288A1, “METHODS OF TREATING CANCER” (THE UNIVERSITY OF ROCHESTER, priority 2016, published 2018).

The test system of one experiment is parental MCF-7 cells. Description: Growth and killing of parental MCF-7 cells in vitro. In kind it is cell-based, human. The settings on record: 48 hrs of exposure to 5 μM.
In a further experiment the test system is TMXR MCF-7 cells. Description: Growth and killing of TMXR MCF-7 cells in vitro. In kind it is cell-based, human. The settings on record: 48 hrs of exposure to 5 μM.

Some results are limits rather than exact numbers.

On to 4-hydroxycyclophosphamide, for which the cells killed in the experiment on parental MCF-7 cells is recorded as 70%; with TMXR MCF-7 cells, less than 10%.
